## Ab-14 light chain CDR variants: yeast mating affinities

All variants were tested on one target, the spike HR2 peptide PDVDLGDISGINAS (SARS-CoV-2).

Ab-14 is the parent antibody, in scFv form: VH, then a 15-residue (Gly4Ser)3 linker, then VL. The heavy chain is unchanged in all variants.
VH: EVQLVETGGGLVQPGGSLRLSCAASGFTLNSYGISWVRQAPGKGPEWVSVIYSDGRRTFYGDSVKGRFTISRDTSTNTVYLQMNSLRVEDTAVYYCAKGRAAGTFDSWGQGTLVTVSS
VL: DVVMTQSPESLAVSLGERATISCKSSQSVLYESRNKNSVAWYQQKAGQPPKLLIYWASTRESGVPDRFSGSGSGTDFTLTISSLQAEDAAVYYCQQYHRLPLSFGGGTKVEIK

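These sequences belong to a second round, designed from the earlier measurements on random variants of the parent. Group labels follow the data file (Ctrl: baseline library sampled from a position-specific scoring matrix, with some repeated check sequences; En: ensemble of fine-tuned language models; GP: Gaussian process model; HC: hill climbing; Gen: genetic algorithm; Gibbs: Gibbs sampling; a sequence that several methods proposed may carry one label only). Affinity was read by AlphaSeq, a pooled yeast mating assay with surface-displayed partners. Binding brings cells together so that they mate, and sequencing counts the barcode pairs among the diploids. The ratio of observed to expected reads was calibrated, replicate by replicate, on BCL2-family standards whose Kd was known from biolayer interferometry. The assay was run in six technical replicates.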

The parent's light chain CDRs are KSSQSVLYESRNKNSVA, WASTRES, QQYHRLPLS; each variant's own CDRs replace them letter for letter.
The read-out is the apparent dissociation constant on a log10 scale (nM): the lower, the stronger.
The mean shown is taken over the replicates in which the pair was detected.
Where no diploid with the target was found in any replicate, the entry reads "not detected": below detection, most likely a poor binder, though not proof of it.

"mean, log10 nM",detected,signal with controls,CDR-L1,CDR-L2,CDR-L3,group
0.62,6/6,1/18,VLSHSTDLESVHKNSIA,DLMTRES,QQYHRLPLS,En_HC
-0.32,6/6,0/18,KVSQSQLYESRNKNSVA,NASTRES,QSYHRLPLS,GP_Gen
0.42,6/6,1/18,MISGFMKSSMAHMNSVA,DMTNRED,QQYDRLPLS,En_Gen
0.03,6/6,1/18,KSPQSWLYESRNKNSVA,HASTREQ,QQYHRLPLS,GP_HC
0.02,6/6,0/18,ALGDVTRMESNKKNSIA,DMSNREA,QQYHRLPLS,En_HC
0.71,6/6,1/18,KLSQKVLYEHRTKNSVA,NASTRES,QQYHRLPLS,GP_HC
2.37,5/6,1/18,TIGAQLMYGMRNRSNVA,EVSQRLN,QQYDRLPLI,En_Gen
0.60,6/6,0/18,SLAYTQHFGQSQEKAIA,EVATREQ,QQYFRLPLG,En_Gibbs
0.33,6/6,1/18,KFSQSVGYESRTKNSVA,NASTRES,QQYHRLPLS,GP_HC
-0.15,6/6,1/18,KLSQSVLYESRNSNSVA,EASTREV,QQYHRLPLS,GP_Gen
0.08,6/6,0/18,KLQQSVGYESRLANSVA,NASTRLE,QQYHRLPLS,GP_Gibbs
0.30,6/6,1/18,RLRNMWNGWVNNGASIA,DANMYAP,QQYQRLPLA,En_Gibbs
2.13,1/6,0/18,IVSQLMLWGYHAKNSIA,EAQTRLN,QQYDRLPLF,En_Gen
0.83,6/6,0/18,KSSSSVLYESENKNSVA,EASQRES,QQYHRLPLS,GP_HC
0.26,6/6,0/18,TVSQVTGMLQHNTNSVA,DMNTRGS,QQYDRLPLS,En_HC
-0.36,6/6,0/18,KLSMVTGHMSMAKNNVA,EMVTREK,QQYNRLPLA,En_Gen
1.16,1/6,0/18,KLSQMTRMESRNKASVA,ENSTRES,QQYFRLPLS,En_HC
1.77,6/6,0/18,KSSPSVLYEGRNKNSVA,WASTRES,QQYFRLPLS,Ctrl
0.03,6/6,1/18,KVSQSVLYESRNKNSVA,NASTRES,QQYHRLPLF,GP_Gen
0.38,6/6,0/18,MMSQVTGLGTRHRNNVA,QTSTREE,QQYDRLPLV,En_Gen
0.75,6/6,1/18,RLLDWAYNLTAKDSNIA,DSDIRGS,QQYSHLPLA,En_Gibbs
0.56,6/6,0/18,HSSISVAYESRNKNSVA,NASTRES,QQYHRLPLS,GP_HC
-0.20,6/6,0/18,KLQQSEEYESRNKNSVA,HASTRES,QQYHRLPLS,GP_HC
1.32,5/6,0/18,KVSQSVLYESTNKNSVA,WASTRES,QQYHRLPLS,Ctrl
1.60,4/6,0/18,KISQMVRVGSTVKNSIA,EEVTRAK,QQYHRLPLA,En_Gen
-0.58,6/6,1/18,TISDVMHMESRNVNNVA,DLVKREK,QQYHRLPLS,En_HC
0.73,6/6,2/18,KSSQSVLYESRNKNSVA,EADTRAS,QSYHRLPLS,Ctrl
1.11,6/6,1/18,HISHMWFLESKNKNNVA,EESTRED,QSYFRLPLS,En_HC
-0.08,6/6,0/18,KYYPSYLYESRNKNSVA,NASQRES,QQYHRLPLS,GP_HC
0.29,6/6,1/18,TLGDVTRMESNKKNSIA,DMSNRAN,QQYHRLPLS,En_HC
2.24,6/6,0/18,HIGLATMLEETVRNSVA,NNSTRES,QQYDRLPLS,En_Gen
1.54,6/6,0/18,KIVGTLNQLMHKKNNVA,DLVMREN,QQYFRLPLS,En_Gen
not detected,0/6,1/18,KSSQSVLFESDNKNSVA,WAFTRES,QQYHRLPLS,Ctrl
1.16,6/6,1/18,KSSQSDLYESRWKNSVA,GASQRES,QQYHRLPLS,GP_HC
2.76,3/6,0/18,VLMGQGADSIQHANSIA,NVDLVDM,QQYAHLPLS,En_Gibbs
1.22,6/6,0/18,KIYQVGLGSQKVMRNIA,ETSTRCT,QSYQRLPLS,En_Gibbs
0.79,6/6,1/18,MFSQSVMYGSFYRNSVA,QTSTREP,QQYDRLPLS,En_HC
0.43,6/6,0/18,KSSQDVLYPSRYWNSVA,AASTRES,QQYHRLPLS,Ctrl
1.15,6/6,0/18,KVSHVQDVHTRNVNSVA,QMDTREE,QDYNRLPLS,En_Gen
1.41,6/6,1/18,KIEISNSVSLRGTRAIA,QASTRAH,QQYHRLPLT,En_Gibbs
1.56,6/6,2/18,KSSQAVLYESRNKNSVA,WASLRES,QQYHRLPLS,Ctrl
1.30,5/6,1/18,KVSPSWLYEDRNWNSVA,QASCRNS,QQYHRLPLS,GP_Gibbs
-0.29,6/6,0/18,KASQSYLYESRNKNSVA,GASTRES,QQYHRLPLS,GP_HC
2.05,6/6,0/18,YIAGNSDNLYQNTSSVA,ETNQVRQ,QQYHLLPLA,En_Gibbs
1.72,6/6,1/18,MISQLYNMGSFAINSVA,QASERSE,QQYDRLPLI,En_Gen
2.40,5/6,0/18,KLNKHAWDFNQTWNSVA,DHSMRVT,QDYIRLPLT,En_Gibbs
0.02,6/6,1/18,KSSQSVLTEPRNKNSVA,DASTRES,QQYHRLPLS,GP_HC
1.09,6/6,0/18,KLGYNTGTESFRKDNIA,DNDLREY,QQYDRLPLS,En_Gen
-0.24,6/6,2/18,KLLQSQLYESRNKNSVA,NASTRES,QQYHRLPLS,GP_Gen
2.00,1/6,0/18,KSSQSVLPESRNKNSVA,WASTRES,QQYHRLVLS,Ctrl
-0.24,6/6,1/18,KLSQSDGYESRNKNSVA,DASTRES,QQYHRLPLS,GP_Gen

The 9 strongest on average among those seen in every replicate, once more:

{"CDR-L1": "TISDVMHMESRNVNNVA", "CDR-L2": "DLVKREK", "CDR-L3": "QQYHRLPLS", "group": "En_HC", "mean, log10 nM": "-0.58", "detected": "6/6", "signal with controls": "1/18"}
{"CDR-L1": "KLSMVTGHMSMAKNNVA", "CDR-L2": "EMVTREK", "CDR-L3": "QQYNRLPLA", "group": "En_Gen", "mean, log10 nM": "-0.36", "detected": "6/6", "signal with controls": "0/18"}
{"CDR-L1": "KVSQSQLYESRNKNSVA", "CDR-L2": "NASTRES", "CDR-L3": "QSYHRLPLS", "group": "GP_Gen", "mean, log10 nM": "-0.32", "detected": "6/6", "signal with controls": "0/18"}
{"CDR-L1": "KASQSYLYESRNKNSVA", "CDR-L2": "GASTRES", "CDR-L3": "QQYHRLPLS", "group": "GP_HC", "mean, log10 nM": "-0.29", "detected": "6/6", "signal with controls": "0/18"}
{"CDR-L1": "KLLQSQLYESRNKNSVA", "CDR-L2": "NASTRES", "CDR-L3": "QQYHRLPLS", "group": "GP_Gen", "mean, log10 nM": "-0.24", "detected": "6/6", "signal with controls": "2/18"}
{"CDR-L1": "KLSQSDGYESRNKNSVA", "CDR-L2": "DASTRES", "CDR-L3": "QQYHRLPLS", "group": "GP_Gen", "mean, log10 nM": "-0.24", "detected": "6/6", "signal with controls": "1/18"}
{"CDR-L1": "KLQQSEEYESRNKNSVA", "CDR-L2": "HASTRES", "CDR-L3": "QQYHRLPLS", "group": "GP_HC", "mean, log10 nM": "-0.20", "detected": "6/6", "signal with controls": "0/18"}
{"CDR-L1": "KLSQSVLYESRNSNSVA", "CDR-L2": "EASTREV", "CDR-L3": "QQYHRLPLS", "group": "GP_Gen", "mean, log10 nM": "-0.15", "detected": "6/6", "signal with controls": "1/18"}
{"CDR-L1": "KYYPSYLYESRNKNSVA", "CDR-L2": "NASQRES", "CDR-L3": "QQYHRLPLS", "group": "GP_HC", "mean, log10 nM": "-0.08", "detected": "6/6", "signal with controls": "0/18"}

In the paper, a design with two or fewer of six values counts as a poor binder.
The parent sequence was in this pool as ten entries: three were never detected, three once, and four in most replicates, with averages from 0.34 to 2.37.
As a blank, each scFv also met three strains without target: over all light chain designs, 4% of these pairings were detected, typically at 2.64 and seldom below 1.59. The control count says in how many pairings with the empty strains this scFv gave a signal.
A sequence measured in both rounds can read differently, since the two assays cover different ranges.

Values reported by Li et al. 2023, doi:10.1038/s41467-023-39022-2 (FLAb copy).